{"source": "paper PMC9080015", "about": "(RSC Advances, 2018)", "biological_target": "T1, recombinant human CYP1B1 (Homo sapiens, UniProt Q16678)", "T1 sequence (Q16678 1-543)": "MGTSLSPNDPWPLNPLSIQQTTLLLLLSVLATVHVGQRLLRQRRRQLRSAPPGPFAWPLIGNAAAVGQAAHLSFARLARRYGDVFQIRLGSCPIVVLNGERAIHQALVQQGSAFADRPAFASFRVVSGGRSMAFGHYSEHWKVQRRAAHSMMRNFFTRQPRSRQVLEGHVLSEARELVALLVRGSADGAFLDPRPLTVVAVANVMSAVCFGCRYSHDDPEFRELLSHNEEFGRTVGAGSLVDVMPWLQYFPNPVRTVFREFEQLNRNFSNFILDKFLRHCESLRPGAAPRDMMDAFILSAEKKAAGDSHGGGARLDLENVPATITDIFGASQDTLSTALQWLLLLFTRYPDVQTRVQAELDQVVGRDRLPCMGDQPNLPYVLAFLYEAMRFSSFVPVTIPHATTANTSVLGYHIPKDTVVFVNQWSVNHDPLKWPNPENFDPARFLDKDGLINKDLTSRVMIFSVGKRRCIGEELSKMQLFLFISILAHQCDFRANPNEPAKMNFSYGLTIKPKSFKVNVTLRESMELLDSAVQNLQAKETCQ", "assay": "EROD assay, recombinant human CYP1B1 inhibition", "type": "biochemical"}
{"smiles": "O=c1cc(-c2ccccc2)oc2c1ccc1ccccc12", "note": "[ANF, α-Naphthoflavone]", "values": [{"measurement": "IC50", "result": 5.6, "unit": "nM"}]}
